## Cyclic peptide permeability, from CycPeptMPDB

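The data file gives no further conditions (lipid, pH, time, direction or concentration), and values from different papers need not be comparable. The list need not hold all peptides of the study. Peptides that the database sets to -10, its floor, are left out.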

PAMPA measures passive passage through an artificial lipid membrane.
P is given in units of 10^-6 cm/s (from log10 values with two decimals); larger means faster passage.

Listed for CCCN1CC(=O)N[C@H](CC(C)C)C(=O)N(C)[C@H](CC(C)C)C(=O)N2CCC[C@@H]2C(=O)N(C)[C@H](CC(C)C)C(=O)N[C@@H](Cc2ccccc2)C(=O)N2CCC[C@@H]2C1=O: PAMPA 5.5 × 10^-6 cm/s.
Listed for CC(C)C[C@@H]1C(=O)N(Cc2ccccc2)CC(=O)N2CCC[C@H]2C(=O)N(C)[C@H](CC(C)C)C(=O)N[C@@H](Cc2ccccc2)C(=O)N2CCC[C@H]2C(=O)N(C)[C@@H](C)C(=O)N1C: PAMPA 0.78 × 10^-6 cm/s.
Listed for CC(C)C[C@@H]1NC(=O)[C@H](C)NC(=O)[C@H]2CCCN2C(=O)[C@H](Cc2ccccc2)NC(=O)[C@H](CC(C)C)NC(=O)[C@@H]2CCCN2C(=O)C[C@H](Cc2ccccc2)NC1=O: PAMPA 1.1 × 10^-6 cm/s.
Listed for CC(C)C[C@@H]1C(=O)N[C@@H](Cc2ccccc2)C(=O)N2CCC[C@@H]2C(=O)N[C@@H](Cc2ccccc2)CC(=O)N[C@H](CC(C)C)C(=O)N[C@H](CC(C)C)C(=O)N2CCC[C@@H]2C(=O)N1C: PAMPA 1.3 × 10^-6 cm/s.
Listed for CC(C)C[C@@H]1C(=O)N[C@@H](Cc2ccccc2)C(=O)N2CCC[C@@H]2C(=O)N[C@@H](Cc2ccccc2)CC(=O)N(C)[C@@H](CC(C)C)C(=O)N(C)[C@@H](CC(C)C)C(=O)N2CCC[C@@H]2C(=O)N1C: PAMPA 5.8 × 10^-6 cm/s.
Listed for CC(C)C[C@H]1NC(=O)[C@@H](C)N(C)C(=O)[C@H]2CCCN2C(=O)[C@H](Cc2ccccc2)NC(=O)[C@H](CC(C)C)N(C)C(=O)[C@H]2CCCN2C(=O)[C@H](CC(C)C)N(C)C1=O: PAMPA 1.5 × 10^-6 cm/s.
Listed for CC(C)C[C@@H]1NC(=O)[C@@H](CC(C)C)N(C)C(=O)[C@@H](C)N(C)C(=O)[C@@H]2CCCN2C(=O)[C@H](Cc2ccccc2)NC(=O)CN(Cc2ccccc2)C(=O)[C@@H]2CCCN2C1=O: PAMPA 1.6 × 10^-6 cm/s.
Listed for CC(C)C[C@@H]1C(=O)N2CCC[C@@H]2C(=O)N[C@H](CC(C)C)C(=O)N[C@@H](Cc2ccccc2)C(=O)N2CCC[C@H]2C(=O)N(C)[C@H](C)C(=O)N(C)[C@@H](CC(C)C)C(=O)N1C: PAMPA 6.2 × 10^-6 cm/s.
Listed for CCCN1CC(=O)N(C)[C@H](CC(C)C)C(=O)N(C)[C@@H](CC(C)C)C(=O)N2CCC[C@@H]2C(=O)N(C)[C@H](CC(C)C)C(=O)N[C@@H](Cc2ccccc2)C1=O: PAMPA 8.1 × 10^-6 cm/s.
Listed for CC(C)C[C@@H]1NC(=O)[C@H](C)N(C)C(=O)[C@H](Cc2ccccc2)NC(=O)[C@@H](CC(C)C)NC(=O)[C@@H]2CCCN2C(=O)[C@@H](CC(C)C)N(C)C1=O: PAMPA 15 × 10^-6 cm/s.
Listed for CC(C)C[C@@H]1C(=O)N[C@@H](Cc2ccccc2)C(=O)N(C)[C@@H](C)C(=O)N[C@H](CC(C)C)C(=O)N[C@H](CC(C)C)C(=O)N2CCC[C@H]2C(=O)N1C: PAMPA 6.5 × 10^-6 cm/s.
Listed for CC(C)C[C@@H]1NC(=O)[C@H]2CCCN2C(=O)[C@H](CC(C)C)N(C)C(=O)[C@H](CC(C)C)NC(=O)[C@@H](C)N(C)C(=O)[C@@H]2CCCN2C(=O)[C@H](Cc2ccccc2)NC1=O: PAMPA 2.3 × 10^-6 cm/s.
Listed for CC(C)C[C@H]1NC(=O)[C@H](CC(C)C)N(C)C(=O)[C@H](C)N(C)C(=O)[C@H](Cc2ccccc2)NC(=O)CN(Cc2ccccc2)C(=O)[C@H]2CCCN2C1=O: PAMPA 2 × 10^-6 cm/s.
Listed for CC(C)C[C@@H]1NC(=O)[C@@H]2CCCN2C(=O)[C@H](CC(C)C)NC(=O)[C@@H](CC(C)C)N(C)C(=O)C[C@H](Cc2ccccc2)NC(=O)[C@H](Cc2ccccc2)NC1=O: PAMPA 2.1 × 10^-6 cm/s.
Listed for CCCN1CC(=O)N(C)[C@H](CC(C)C)C(=O)N(Cc2ccccc2)CC(=O)N2CCC[C@@H]2C(=O)N(C)[C@@H](CC(C)C)C(=O)N[C@@H](Cc2ccccc2)C(=O)N2CCC[C@H]2C1=O: PAMPA 1 × 10^-6 cm/s.
Listed for CC(C)C[C@@H]1NC(=O)[C@@H](CC(C)C)N(C)C(=O)[C@@H](C)NC(=O)[C@H](Cc2ccccc2)NC(=O)[C@H](CC(C)C)N(C)C(=O)[C@@H]2CCCN2C1=O: PAMPA 5 × 10^-6 cm/s.
Listed for CC(C)C[C@H]1NC(=O)[C@H](CC(C)C)N(C)C(=O)C[C@H](Cc2ccccc2)NC(=O)[C@H](Cc2ccccc2)NC(=O)CN(Cc2ccccc2)C(=O)[C@@H]2CCCN2C1=O: PAMPA 3.3 × 10^-6 cm/s.
Listed for CCCN1CC(=O)N[C@@H](CC(C)C)C(=O)N[C@@H](CC(C)C)C(=O)N2CCC[C@@H]2C(=O)N(Cc2ccccc2)CC(=O)N[C@@H](Cc2ccccc2)C1=O: PAMPA 4.1 × 10^-6 cm/s.
Listed for CC(C)C[C@@H]1NC(=O)[C@@H]2CCCN2C(=O)C[C@H](Cc2ccccc2)NC(=O)[C@@H](CC(C)C)N(C)C(=O)[C@H](C)NC(=O)[C@@H]2CCCN2C(=O)[C@H](Cc2ccccc2)NC1=O: PAMPA 0.49 × 10^-6 cm/s.

The 2 highest values of PAMPA among the entries above:

| compound | PAMPA (10^-6 cm/s) |
|---|---|
| CC(C)C[C@@H]1NC(=O)[C@H](C)N(C)C(=O)[C@H](Cc2ccccc2)NC(=O)[C@@H](CC(C)C)NC(=O)[C@@H]2CCCN2C(=O)[C@@H](CC(C)C)N(C)C1=O | 15 |
| CCCN1CC(=O)N(C)[C@H](CC(C)C)C(=O)N(C)[C@@H](CC(C)C)C(=O)N2CCC[C@@H]2C(=O)N(C)[C@H](CC(C)C)C(=O)N[C@@H](Cc2ccccc2)C1=O | 8.1 |

Collected by the curators of CycPeptMPDB (Li et al. 2023) from Townsend et al. 2020, doi:10.26434/chemrxiv.13335941.v1.